Measured values: patent US12440576B2, “Antibody drug conjugates comprising sting agonists” (Mersana Therapeutics, Inc., priority 2020, dated 2025)

Tested on: STING knock out (sg #3-2) SKBR3 cells
Experiment: PBMC killing assay, STING knock out SKBR3 NucRed cells (Examples 30, 30A)
Format: cell-based, human
Conditions: 100, 25, 5 and 1 nM payload

Structure (SMILES): CCn1nc(C)cc1C(=O)Nc1nc2cc(C(N)=O)cc(OC)c2n1C/C=C/Cn1c(NC(=O)c2cc(C)nn2CC)nc2cc(C(N)=O)cc(OCCCO)c21 [Compound 1]
- killing of SKBR3 cells/PBMC co-cultures (FIG. 3B): no activity
